Our source for the Kd values is PMC4266533, “Kinetics of the early events of GPCR signalling” (Febs Letters, 2014).

For this test, the target named is T1, FLAG-NTS1 (neurotensin receptor type 1) reconstituted into PC:PG nanodiscs, neurotensin-bound (UniProt P20789).
T1 construct: Neurotensin (NT), 13 amino acid peptide, agonist kept in excess (5 uM) with the receptor; The receptor stood in ~10 nm lipid nanodiscs with the belt protein MSP1D1 (Addgene plasmid 20061, made in E. coli BL21(DE3)); MSP1D1 is not written as a chain; Primarily one receptor per disc (50:1 MSP1D1:FLAG-NTS1); also called FLAG-NTS1-PC:PG nanodiscs; NTS1-nanodiscs
As to the kind of experiment: SPR; Gα amine-coupled to a CM5 chip (Biacore T100/T200); NT-bound (5 uM NT) anti-FLAG-enriched FLAG-NTS1-PC:PG nanodiscs as analyte, serially diluted from 660 nM or 400 nM; single cycle kinetics at 30-50 ul/min; empty nanodiscs as reference, double-referenced; 50 mM Tris-HCl pH 7.4, 100 mM NaCl, 5 mM MgCl2; heterogeneous ligand binding global fit. Conditions: both partners purified.

By Kd is commonly meant a measure of binding affinity in units of concentration. High values mean weaker binding, low ones tighter binding.

B1: His6-Gαi1 (alpha subunit of the inhibitory G protein Gi1) (natural protein, UniProt P63096 1-354, looked up)
chain: MGCTLSAEDKAAVERSKMIDRNLREDGEKAAREVKLLLLGAGESGKSTIVKQMKIIHEAGYSEEECKQYKAVVYSNTIQSIIAIIRAMGRLKIDFGDSARADDARQLFVLAGAAEEGFMTAELAGVIKRLWKDSGVQACFNRSREYQLNDSAAYYLNDLDRIAQPNYIPTQQDVLRTRVKTTGIVETHFTFKDLHFKMFDVGGQRSERKKWIHCFEGVTAIIFCVALSDYDLVLAEDEEMNRMHESMKLFDSICNNKWFTDTSIILFLNKKDLFEEKIKKSPLTICYPEYAGSNTYEEAAAYIQCQFEDLNKRKDTKEIYTHFTCATDTKNVQFVFDAVTDVIIKNNLKDCGLF
notes: Alpha subunit of Gi1; construct donated by Renaud Wagner (University of Strasbourg); also called His6-Gi1; His-Gαi1
In turn, B1 came in with a dissociation constant (Kd) of 9 nM.
